# In BindingDB's records for patent US20230312576 (Centre National De La Recherche Scientifique, 2023):
# The chains behind the UniProt entries cited, without tags or fusion partners. Where a name states a change or a piece, a line headed by the entry shows the natural chain unless it says otherwise.
# UniProt P53671: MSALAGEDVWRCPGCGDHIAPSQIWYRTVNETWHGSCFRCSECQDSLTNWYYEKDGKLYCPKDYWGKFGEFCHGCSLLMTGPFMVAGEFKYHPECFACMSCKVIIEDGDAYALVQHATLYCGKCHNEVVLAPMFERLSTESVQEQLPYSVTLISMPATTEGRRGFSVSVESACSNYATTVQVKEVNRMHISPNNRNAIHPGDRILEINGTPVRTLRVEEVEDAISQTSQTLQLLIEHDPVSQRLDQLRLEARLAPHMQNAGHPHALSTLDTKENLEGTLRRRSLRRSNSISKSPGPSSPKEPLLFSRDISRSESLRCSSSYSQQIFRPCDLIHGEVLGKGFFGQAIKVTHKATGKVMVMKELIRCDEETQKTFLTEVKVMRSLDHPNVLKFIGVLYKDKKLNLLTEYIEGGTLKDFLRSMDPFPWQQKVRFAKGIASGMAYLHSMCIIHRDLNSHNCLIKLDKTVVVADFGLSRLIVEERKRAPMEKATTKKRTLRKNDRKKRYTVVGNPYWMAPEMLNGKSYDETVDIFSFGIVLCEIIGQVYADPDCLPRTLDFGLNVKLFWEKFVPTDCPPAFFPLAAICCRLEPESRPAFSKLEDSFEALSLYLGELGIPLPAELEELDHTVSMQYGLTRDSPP
# Biological target: LIM domain kinase 2 (Homo sapiens, UniProt P53671)
compound,measurement,value
"Cc1c[nH]c2ncnc(C3=CC(C)N(C(=O)Nc4cccc(Cl)c4)C(C)C3)c12 (stereo unspecified) [US20230312576, Compound 63]",Ki,8.49 nM
